# In publication PMC9293779, “Elucidation of binding preferences of YEATS domains to site-specific acetylated nucleosome core particles” (The Journal of Biological Chemistry, 2022):
# What was measured:
# YEATS2-YEATS [1] = target: T1, YEATS2-YEATS (Homo sapiens, UniProt Q9ULM3); assay: Peptide array-based binding assay, YEATS2-YEATS; conditions: 10 μM YEATS domain, 4 °C overnight, anti-GST/HRP chemiluminescence
# T1 construct: For ITC experiments, the cDNAs encoding AF9-YEATS (residues 1–138) and YEATS2-YEATS (200–349) were inserted into the same vector; polyhistidine tag (N); GST (N); made in house
# T1 sequence (Q9ULM3 200-349): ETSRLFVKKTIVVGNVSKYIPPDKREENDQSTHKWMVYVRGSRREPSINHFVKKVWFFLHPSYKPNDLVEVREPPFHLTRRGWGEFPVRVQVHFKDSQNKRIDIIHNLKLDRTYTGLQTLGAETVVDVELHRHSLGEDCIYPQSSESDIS
# Method: For the assay using the MODified Histone Peptide Array, the same cDNA sequences encoding human YEATS domains were amplified by PCR and subcloned into a pCR2.1 vector with a GST-encoding sequence inserted after an N-terminal polyhistidine tag. For microscale thermophoresis measurements, a similar construct but without GST was used. Site-directed mutagenesis of AF9-YEATS (residues 1–138) was conducted by PCR using the DpnI restriction enzyme and the following primer sets: 5′-CCTTCACGCATCCTTTCCTCGTCCTAAAC-3′ (forward) and 5′-GGAAAGGATGCGTGAAGGTGAAACACCAC-3′ (reverse) for E57A and 5′-CGACTATGACCTGTTTCTGCATCTCG-3′ (forward) and 5′-GCAGAAACAGTGCATAGTCGAAGCGAAC-3′ (reverse) for D103A. The introduced mutations were verified by DNA sequencing. For X-ray structural analysis, the cDNAs encoding AF9-YEATS (residues 1–138) and YEATS2-YEATS (202–338) were amplified by PCR and subcloned into the pCR2.1 vector encoding GST and the polyhistidine tag. […]
# Assays were performed using the MODified Histone Peptide Array (Active Motif) following the manufacturer’s protocol. […] Protein binding was detected by Chemi-Lumi One Super (Nacalai Tesque). Signal intensities were quantified by using the Protein Array Analyzer for ImageJ (written by Gilles Carpentier, 2010. The macro is available online: http://rsb.info.nih.gov/ij/macros/toolsets/Protein Array Analyzer.txt).
# YEATS2-YEATS [2] = target: T1, YEATS2-YEATS; assay: Isothermal titration calorimetry, YEATS2-YEATS; format: binding; conditions: 15 °C, 20 mM Tris-HCl pH 7.6, 500 mM NaCl; 100 μM protein, 1 mM peptide
substance,measurement,setting,value
K27ac-containing H3 (15–39) peptide: histone H3 (15–39) peptide acetylated on K27,binding on MODified Histone Peptide Array,YEATS2-YEATS [1],weakly and nonreproducibly bound
same,binding (ITC),YEATS2-YEATS [2],did not bind
